# Earlier results as cited in paper PMC5412686 (Biopharmaceutics & Drug Disposition, 2017).
# Where two headings read alike, the source gives them in different places.
# Key:
# [1] = Rats, fraction unbound; ref Supplemental Table S1; cited from earlier work
# [2] = Humans, fraction unbound in plasma; ref Supplemental Table S1; cited from earlier work
Compound,f up [1],f up [2]
Cc1ccc(-c2nc3ccc(C)cn3c2CC(=O)N(C)C)cc1 [Zolpidem],0.13,–
Cc1ncc2n1-c1ccc(Cl)cc1C(c1ccccc1F)=NC2 [Midazolam],0.06,–
COc1ccc2[nH]c([S+]([O-])Cc3ncc(C)c(OC)c3C)nc2c1 (centres unmarked) [Omeprazole],0.13,–
CCOC(=O)C1=C(C)NC(C)=C(C(=O)OC)C1c1cccc([N+](=O)[O-])c1 (centres unmarked) [Nitrendipine],0.04,0.01
